# According to patent US9556229B2, “Modification of peptides using a bis(thioether)arylbridge approach” (priority 2012, dated 2017):
# Tested on: HCT116 colorectal cancer cells
smiles,measurement,value
C[C@@H](O)[C@H](N)C(=O)N[C@@H](CO)C(=O)N[C@@H](Cc1ccccc1)C(=O)N[C@@H](CCCNC(=N)N)C(=O)N[C@@H](CCCNC(=N)N)C(=O)N[C@@H](Cc1ccc(O)cc1)C(=O)N[C@H]1CSCc2cccc(c2)CSC[C@H](C(=O)N[C@@H](CO)C(=O)N2CCC[C@H]2C(N)=O)NC(=O)[C@H](CCCNC(=N)N)NC(=O)[C@H](CCCNC(=N)N)NC1=O [ArB14Em],EC50,114 µM
